In one test the target is PARP2 (Homo sapiens (Human), UniProt Q9UGN5). Nature of the test: PARP2 biochemical assay (BPS kit).
In test [1] the target is 6×HIS-tankyrase 2 (946-1162) (Homo sapiens (Human), UniProt Q9H2K2). Description: Tankyrase 2 biochemical assay (AlphaLisa, PARsylation). As to conditions: 250 nM NAD; read-out: TNKS2 IC50. Background: In Alpha technology, singlet oxygen from a donor bead excites a nearby acceptor bead.

By UniProt entry, the sequences of proteins in these tests, tags left out. Where a name states a change or a piece, a line headed by the entry shows the natural chain unless it says otherwise. Residues count along the entry.
UniProt Q9UGN5: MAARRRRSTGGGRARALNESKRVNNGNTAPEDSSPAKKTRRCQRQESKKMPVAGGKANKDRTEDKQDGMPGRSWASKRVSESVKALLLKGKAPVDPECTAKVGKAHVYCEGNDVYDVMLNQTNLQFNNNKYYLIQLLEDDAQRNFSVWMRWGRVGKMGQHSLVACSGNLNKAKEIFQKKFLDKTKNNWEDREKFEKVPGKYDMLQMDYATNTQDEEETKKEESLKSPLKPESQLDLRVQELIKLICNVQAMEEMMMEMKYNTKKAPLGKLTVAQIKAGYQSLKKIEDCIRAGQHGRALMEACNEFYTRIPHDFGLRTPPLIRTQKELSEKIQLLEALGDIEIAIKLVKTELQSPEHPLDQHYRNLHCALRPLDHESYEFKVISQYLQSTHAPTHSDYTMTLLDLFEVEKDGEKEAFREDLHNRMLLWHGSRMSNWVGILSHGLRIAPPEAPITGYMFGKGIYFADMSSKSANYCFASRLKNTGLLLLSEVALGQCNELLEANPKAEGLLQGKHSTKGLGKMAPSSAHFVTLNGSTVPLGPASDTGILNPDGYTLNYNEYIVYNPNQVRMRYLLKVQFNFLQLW
UniProt Q9H2K2, 946-1162: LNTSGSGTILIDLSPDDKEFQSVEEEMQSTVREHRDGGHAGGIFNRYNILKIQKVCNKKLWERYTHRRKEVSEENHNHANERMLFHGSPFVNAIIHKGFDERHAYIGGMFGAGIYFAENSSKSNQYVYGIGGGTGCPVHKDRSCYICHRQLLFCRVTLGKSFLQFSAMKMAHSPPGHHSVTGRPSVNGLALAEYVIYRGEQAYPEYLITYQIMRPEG

pIC50: −log10 of the molar value.

The source of these data is patent publication US9505749B2, “Quinazolinone compounds and derivatives thereof” (AMGEN INC., priority 2012, dated 2016).

Turning to `O=C(CCc1nc2ccccc2c(=O)[nH]1)N[C@H]1CC[C@H](c2nnc(-c3ccccc3F)o2)CC1` [Example 126, N-((1r,4r)-4-(5-(2-fluorophenyl)-1,3,4-oxadiazol-2-yl)cyclohexyl)-3-(4-oxo-3,4-dihydroquinazolin-2-yl)propanamide], the pIC50 – broadly, the negative decadic logarithm of the IC50, by convention in mol/L – against PARP2 was 5.97. Turning to `O=C(CCc1nc2ccccc2c(=O)[nH]1)N[C@H]1CC[C@H](c2nnc(-c3ccc(Cl)cc3)o2)CC1` [Example 141, N-((1r,4r)-4-(5-(4-chlorophenyl)-1,3,4-oxadiazol-2-yl)cyclohexyl)-3-(4-oxo-3,4-dihydroquinazolin-2-yl)propanamide], the pIC50 in test [1] was 8.23.
